Read-outs that look alike come from different tables or passages of the source. A value given as a limit tells only on which side of the number the result lay.

The chains behind the UniProt entries cited, without tags or fusion partners.
UniProt Q96LA9, whole entry: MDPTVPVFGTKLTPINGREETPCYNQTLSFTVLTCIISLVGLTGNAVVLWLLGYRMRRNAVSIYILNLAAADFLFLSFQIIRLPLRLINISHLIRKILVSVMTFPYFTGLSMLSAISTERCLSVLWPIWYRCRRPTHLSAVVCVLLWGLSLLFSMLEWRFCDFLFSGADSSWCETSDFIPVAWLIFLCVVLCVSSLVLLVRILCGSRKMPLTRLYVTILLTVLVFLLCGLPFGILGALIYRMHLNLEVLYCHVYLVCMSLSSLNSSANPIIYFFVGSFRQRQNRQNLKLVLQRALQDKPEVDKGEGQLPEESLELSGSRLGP
UniProt Q96LB1, whole entry: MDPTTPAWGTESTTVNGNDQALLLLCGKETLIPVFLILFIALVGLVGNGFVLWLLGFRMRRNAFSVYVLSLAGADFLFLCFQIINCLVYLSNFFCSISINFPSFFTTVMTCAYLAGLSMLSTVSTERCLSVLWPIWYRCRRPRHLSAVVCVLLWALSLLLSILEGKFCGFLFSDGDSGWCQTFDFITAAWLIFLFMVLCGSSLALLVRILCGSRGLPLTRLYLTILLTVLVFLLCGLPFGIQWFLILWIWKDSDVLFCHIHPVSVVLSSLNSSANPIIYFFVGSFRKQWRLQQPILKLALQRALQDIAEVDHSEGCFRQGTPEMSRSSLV
UniProt P05177, whole entry: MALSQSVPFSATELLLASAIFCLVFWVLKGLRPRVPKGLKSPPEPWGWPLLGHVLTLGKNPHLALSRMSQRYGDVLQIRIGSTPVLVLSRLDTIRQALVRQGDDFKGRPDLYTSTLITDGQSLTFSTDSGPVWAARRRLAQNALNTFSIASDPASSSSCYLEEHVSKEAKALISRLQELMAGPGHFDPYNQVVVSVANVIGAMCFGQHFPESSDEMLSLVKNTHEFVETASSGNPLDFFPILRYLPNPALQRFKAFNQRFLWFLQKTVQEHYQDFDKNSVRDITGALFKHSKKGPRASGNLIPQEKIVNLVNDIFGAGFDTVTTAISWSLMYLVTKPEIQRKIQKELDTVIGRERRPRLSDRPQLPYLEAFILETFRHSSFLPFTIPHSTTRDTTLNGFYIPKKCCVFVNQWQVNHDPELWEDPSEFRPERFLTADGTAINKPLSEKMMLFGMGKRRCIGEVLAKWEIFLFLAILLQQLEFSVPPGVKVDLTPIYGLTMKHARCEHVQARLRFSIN
UniProt P33261, whole entry: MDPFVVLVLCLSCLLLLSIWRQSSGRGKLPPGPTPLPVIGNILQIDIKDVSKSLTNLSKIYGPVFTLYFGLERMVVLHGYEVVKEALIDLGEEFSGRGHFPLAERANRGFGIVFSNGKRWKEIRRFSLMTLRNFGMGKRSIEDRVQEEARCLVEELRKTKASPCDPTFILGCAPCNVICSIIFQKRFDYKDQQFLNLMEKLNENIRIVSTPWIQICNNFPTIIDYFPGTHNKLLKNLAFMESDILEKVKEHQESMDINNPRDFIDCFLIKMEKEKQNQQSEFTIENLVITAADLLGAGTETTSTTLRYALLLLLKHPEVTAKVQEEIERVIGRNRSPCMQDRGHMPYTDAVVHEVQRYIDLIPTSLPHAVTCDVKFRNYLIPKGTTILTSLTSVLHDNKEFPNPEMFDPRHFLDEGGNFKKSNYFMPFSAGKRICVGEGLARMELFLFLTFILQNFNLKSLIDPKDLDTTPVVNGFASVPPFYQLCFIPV
UniProt P11712, whole entry: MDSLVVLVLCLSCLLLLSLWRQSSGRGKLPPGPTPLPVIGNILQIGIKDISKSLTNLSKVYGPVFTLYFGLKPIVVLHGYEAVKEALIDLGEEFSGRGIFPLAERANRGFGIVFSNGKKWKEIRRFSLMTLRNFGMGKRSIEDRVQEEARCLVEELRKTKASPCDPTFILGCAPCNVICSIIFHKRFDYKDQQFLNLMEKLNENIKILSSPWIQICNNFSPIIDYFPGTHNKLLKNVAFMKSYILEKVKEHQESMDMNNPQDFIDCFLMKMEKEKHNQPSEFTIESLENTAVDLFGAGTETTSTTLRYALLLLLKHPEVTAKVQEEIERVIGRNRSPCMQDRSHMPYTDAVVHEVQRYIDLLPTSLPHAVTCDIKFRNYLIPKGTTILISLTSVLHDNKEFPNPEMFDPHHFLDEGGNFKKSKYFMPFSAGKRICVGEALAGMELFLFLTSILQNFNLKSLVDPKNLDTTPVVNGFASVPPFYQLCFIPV
UniProt P10635, whole entry: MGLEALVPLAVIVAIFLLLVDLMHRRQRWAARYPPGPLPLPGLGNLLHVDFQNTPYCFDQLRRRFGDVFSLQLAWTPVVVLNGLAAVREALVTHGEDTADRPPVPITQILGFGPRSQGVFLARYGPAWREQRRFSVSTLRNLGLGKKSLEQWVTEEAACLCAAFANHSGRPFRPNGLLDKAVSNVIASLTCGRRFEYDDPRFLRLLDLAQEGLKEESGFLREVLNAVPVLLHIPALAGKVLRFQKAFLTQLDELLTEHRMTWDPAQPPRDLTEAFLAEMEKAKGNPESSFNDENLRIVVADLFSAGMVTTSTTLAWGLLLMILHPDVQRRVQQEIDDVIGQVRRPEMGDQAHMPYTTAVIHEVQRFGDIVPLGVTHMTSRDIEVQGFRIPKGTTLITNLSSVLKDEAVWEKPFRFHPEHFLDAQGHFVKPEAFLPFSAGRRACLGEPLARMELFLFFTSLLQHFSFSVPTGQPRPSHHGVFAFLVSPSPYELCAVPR
UniProt P08684, whole entry: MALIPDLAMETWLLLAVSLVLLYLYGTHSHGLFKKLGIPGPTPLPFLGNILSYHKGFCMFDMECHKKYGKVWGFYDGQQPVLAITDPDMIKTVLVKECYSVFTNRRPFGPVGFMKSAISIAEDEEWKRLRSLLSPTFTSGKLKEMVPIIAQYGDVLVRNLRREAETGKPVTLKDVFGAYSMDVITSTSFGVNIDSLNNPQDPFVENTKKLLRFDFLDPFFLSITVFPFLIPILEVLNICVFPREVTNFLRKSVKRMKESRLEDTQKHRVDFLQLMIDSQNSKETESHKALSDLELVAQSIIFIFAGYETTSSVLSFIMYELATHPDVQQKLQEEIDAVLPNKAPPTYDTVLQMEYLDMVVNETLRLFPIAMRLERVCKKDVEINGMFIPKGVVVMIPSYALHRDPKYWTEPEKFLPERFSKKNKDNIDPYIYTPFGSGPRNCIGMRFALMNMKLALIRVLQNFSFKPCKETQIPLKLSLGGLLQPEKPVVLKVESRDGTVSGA

The nature of series [1]: In vivo PK, male C57BL/6 mice (Table 2).
In a further series the target is MRGPRX4 (Homo sapiens, UniProt Q96LA9). Nature of the series: MRGPRX4 activity assay, antagonism versus deoxycholic acid (DCA), IP-One Gq HTRF.
Another series addresses MRGPRX2 (Homo sapiens, UniProt Q96LB1). In words: MRGPRX2 selectivity assay, antagonism versus Substance P, IP-One Gq HTRF in CHO-K1/MRGPRX2 cells. The following applies: for IC50: versus 10 μM Substance P. In general terms: In TR-FRET formats the signal depends on donor and acceptor labels being close together.
The nature of series [2]: Pharmacokinetic study in mice, oral and intravenous (Table 6).
Series [3] can be described thus: Pharmacokinetic study in rat, oral and intravenous (Table 6).
The next series has as its target CYP1A2 (Homo sapiens, UniProt P05177). Nature of the series: CYP inhibition. The settings on record: read-out: CYP 1A2 IC50.
A further series addresses CYP2C19 (Homo sapiens, UniProt P33261). Nature of the series: CYP inhibition. The following applies: read-out: CYP 2C19 IC50.
For a further series, the target named is CYP2C9 (Homo sapiens, UniProt P11712). In words: CYP inhibition. The following applies: read-out: CYP 2C9 IC50.
A further series addresses CYP2D6 (Homo sapiens, UniProt P10635). Nature of the series: CYP inhibition. The following applies: read-out: CYP 2D6 IC50.
The target of the next series is CYP3A4 (Homo sapiens, UniProt P08684). Nature of the series: CYP inhibition. The settings on record: read-out: CYP 3A4 IC50.
Series [4] in a line: Plasma protein binding (PPB), M.
Series [5] in a line: Plasma protein binding (PPB), H.
Where [6] appears, read: read-out: MRGPRX4 antagonist activity, SH-4 cells, versus 30 μM DCA agonist, Table 3.
Setting [7] is: read-out: MRGPRX2 activity IC50, N1, Table 4.

With `O=C(O)c1cccc(COc2ccc(C(F)(F)F)cc2Cl)c1F`, in series [1] (IV 1 mg/kg), the “IV CL” value turned out to be 0.27 mL/min/kg and the “IV Vd” value is 0.63 L/kg. Moreover, in [1] (IV 1 mg/kg, PO 10 mg/kg), the “% F” value was 113%. In addition, in series [1] (PO 10 mg/kg), the “PO AUC0-t” value is recorded as 354,520 ng-hr/ml, the “PO Cmax” value is 29,212 ng/ml and the “PO T½” value worked out at 27 h.
As to `Cc1cc(-c2nnn[nH]2)cc([C@@H]2Cc3cc(C(F)(F)F)ccc3O2)c1` (single isomer, unassigned), the IC50 on MRGPRX4 (setting [6]) is 500 to 1000 nM.
In the case of `Cc1cc(-c2nnn[nH]2)cc([C@H]2Cc3cc(C(F)(F)F)ccc3O2)c1` (single isomer, unassigned), on MRGPRX4 (setting [6]), the IC50 fell in the range of 100 to 500 nM.
With `Cc1cc(-c2nnn[nH]2)nc([C@@H]2Cc3cc(C(F)(F)F)ccc3O2)c1` (single isomer, unassigned), the IC50 on MRGPRX4 (setting [6]) is 100 to 500 nM.
Consider `Cc1cc(-c2nnn[nH]2)nc([C@H]2Cc3cc(C(F)(F)F)ccc3O2)c1` (single isomer, unassigned), for which, on MRGPRX4 (setting [6]), the IC50 is more than 3000 nM.
With `Cc1cc(-c2noc(=O)[nH]2)nc([C@@H]2Cc3cc(C(F)(F)F)ccc3O2)c1` (single isomer, unassigned), the IC50 at MRGPRX4 (setting [6]) is 100 to 500 nM.
Regarding `Cc1cc(-c2noc(=O)[nH]2)nc([C@H]2Cc3cc(C(F)(F)F)ccc3O2)c1` (single isomer, unassigned), the IC50 at MRGPRX4 (setting [6]) is more than 3000 nM.
Still for that read-out and setting: to `Clc1cc2c(cc1Cl)OC(c1cccc(-c3nnn[nH]3)c1)C2` (single isomer, unassigned) belongs 500 to 1000 nM.
Regarding `Clc1cc2c(cc1Cl)O[C@@H](c1cccc(-c3nnn[nH]3)c1)C2` (single isomer, unassigned), the IC50 at MRGPRX4 (setting [6]) was in the range of 100 to 500 nM.
Still for that read-out and setting: to `FC(F)(F)c1cc(Cl)c2c(c1)C[C@@H](c1cccc(-c3nnn[nH]3)c1)O2` (single isomer, unassigned) belongs less than 100 nM; to `FC(F)(F)c1cc(Cl)c2c(c1)C[C@H](c1cccc(-c3nnn[nH]3)c1)O2` (single isomer, unassigned), 100 to 500 nM.
With `FC(F)(F)c1ccc2c(c1)C[C@@H](c1cccc(-c3nnn[nH]3)c1)O2` (single isomer, unassigned), on MRGPRX4 (setting [6]), the IC50 was less than 100 nM.
In the case of `FC(F)(F)c1ccc2c(c1)C[C@@H](c1cccc(-c3nnn[nH]3)n1)O2` (single isomer, unassigned), the IC50 at MRGPRX4 (setting [6]) was 1000 to 3000 nM.
Turning to `FC(F)(F)c1ccc2c(c1)C[C@H](c1cccc(-c3nnn[nH]3)c1)O2` (single isomer, unassigned), the IC50 on MRGPRX4 (setting [6]) lay within 1000 to 3000 nM.
The same measure, in the same setting: the figure for `FC(F)(F)c1ccc2c(c1)C[C@H](c1cccc(-c3nnn[nH]3)n1)O2` (single isomer, unassigned) is less than 100 nM; for `Fc1c(-c2nnn[nH]2)cccc1[C@@H]1Cc2cc(C(F)(F)F)ccc2O1` (single isomer, unassigned) it is less than 100 nM.
For the compound `Fc1c(-c2nnn[nH]2)cccc1[C@H]1Cc2cc(C(F)(F)F)ccc2O1` (single isomer, unassigned), on MRGPRX4 (setting [6]), the IC50 was 1000 to 3000 nM.
The same measure, in the same setting: the figure for `Fc1cc2c(cc1Cl)C[C@@H](c1cccc(-c3nnn[nH]3)c1)O2` (single isomer, unassigned) is less than 100 nM; for `Fc1cc2c(cc1Cl)C[C@@H](c1cccc(-c3nnn[nH]3)n1)O2` (single isomer, unassigned) it is less than 100 nM; for `Fc1cc2c(cc1Cl)C[C@H](c1cccc(-c3nnn[nH]3)c1)O2` (single isomer, unassigned) it is 100 to 500 nM.
Take `Fc1cc2c(cc1Cl)C[C@H](c1cccc(-c3nnn[nH]3)n1)O2` (single isomer, unassigned): the IC50 at MRGPRX4 (setting [6]) was in the range of 500 to 1000 nM.
In the case of `N#Cc1cc(-c2noc(=O)[nH]2)cc([C@@H]2Cc3cc(C(F)(F)F)ccc3O2)c1` (single isomer, unassigned), the IC50 was less than 100 nM at MRGPRX4 (setting [6]) and more than 10000 nM at MRGPRX2 (setting [7]).
As for `N#Cc1cc(-c2noc(=O)[nH]2)cc([C@@H]2Cc3cc(Cl)c(F)cc3O2)c1` (single isomer, unassigned), the IC50 at MRGPRX4 (setting [6]) was less than 100 nM; on MRGPRX2 (setting [7]), more than 10000 nM.
With `N#Cc1cc(-c2noc(=O)[nH]2)cc([C@H]2Cc3cc(C(F)(F)F)ccc3O2)c1` (single isomer, unassigned), the IC50 at MRGPRX4 (setting [6]) lay in the range of 1000 to 3000 nM.
`N#Cc1cc(-c2noc(=O)[nH]2)cc([C@H]2Cc3cc(Cl)c(F)cc3O2)c1` (single isomer, unassigned): the IC50 on MRGPRX4 (setting [6]) was in the range of 100 to 500 nM.
Consider `O=C(O)c1cccc([C@@H]2Cc3cc(C(F)(F)F)ccc3O2)c1` (single isomer, unassigned), for which, at MRGPRX4 (setting [6]), the IC50 is more than 3000 nM.
Turning to `O=C(O)c1cccc([C@@H]2Cc3cc(Cl)c(F)cc3O2)c1` (single isomer, unassigned), the IC50 at MRGPRX4 (setting [6]) is 1000 to 3000 nM.
On the same count and under the same terms, the figure for `O=C(O)c1cccc([C@H]2Cc3cc(C(F)(F)F)ccc3O2)c1` (single isomer, unassigned) is 100 to 500 nM.
On the same count and under the same terms, to `O=C(O)c1cccc([C@H]2Cc3cc(Cl)c(F)cc3O2)c1` (single isomer, unassigned) belongs 100 to 500 nM; to `O=c1[nH]c(-c2cccc([C@@H]3Cc4cc(C(F)(F)F)ccc4O3)c2)no1` (single isomer, unassigned), 100 to 500 nM.
The term Cmax denotes the peak of the concentration-time curve. Usually LogD stands for lipophilicity at a set pH, counting ionised and neutral species. A lower LogD goes with a more hydrophilic compound. The LogP is the decadic logarithm of the partition coefficient of the neutral form, usually between octanol and water. In the case of `O=c1[nH]c(-c2cccc([C@@H]3Cc4cc(C(F)(F)F)ccc4O3)c2F)no1` (single isomer, unassigned), the IC50 at MRGPRX4 (Table 6, target not given) was 24 nM; on MRGPRX4 (Table 7, target not given), 24 nM; on MRGPRX4 (setting [6]), less than 100 nM; at CYP1A2, more than 30000 nM; on CYP2C19, more than 30000 nM; at CYP2C9 it was more than 30000 nM. In addition, the IC50 on CYP2D6 was more than 30000 nM; on CYP3A4 it was more than 30000 nM; at MRGPRX2 (read-out: MRGPRX2 IC50) it was 10000 nM; on MRGPRX2 (setting [7]), 10000 nM. In addition, the AUC0-t in series [2] (iv 1mpk) was found to be 42281 ng·h/mL; in series [2] (po 10mpk), 452005 ng·h/mL; in series [3] (Rat iv), 27444 ng·h/mL; in [3] (Rat po (1mpk)) it was 26466 ng·h/mL. For the same compound, the figures for the C0 in [2] (iv 1mpk) and in [3] (Rat iv) were 4169 ng/mL and 2806 ng/mL, respectively. Besides, the CL amounted to 0.27 mL/min/kg in series [2] (iv 1mpk) and 0.67 mL/min/kg in series [3] (Rat iv). In series [2] (iv 1mpk), the Vd was 0.35 L/kg. Moreover, the t1/2 in series [2] (iv 1mpk) is given as 14.74 h; in [2] (po 10mpk), 17.94 h; in series [3] (Rat iv), 13.2 h; in series [3] (Rat po (1mpk)), 10.75 h. In series [2] (iv 1mpk, po 10mpk), the “% F” value is recorded as 107%. Moreover, the Cmax in series [2] (po 10mpk) is 29537 ng/mL; in [3] (Rat po (1mpk)) it was 1837 ng/mL. The same compound had a LogD in the series “LogP / LogD” of 2.4. In addition, in the series “LogP / LogD”, the LogP came out at 3.3. Further, in “Stability in MLM”, the “MLM % Re @30 min” value is on record as more than 99%. Moreover, in “Stability in RLM”, the “RLM % Re @30 min” value is listed as 99%. Further, the “DLM % Re @30 min” value in “Stability in DLM” was more than 99%. Also, in the series “Stability in HLM”, the “HLM % Re @30 min” value stood at 98%. Also, the “Solubility pH 7.4” value in “Solubility pH 7.4” is more than 200 μM. The “MDCK A-B” value in “MDCK permeability” (A-B) is 18.7 ×10⁻⁶ cm/s. Also, the “MDCK B-A” value in “MDCK permeability” (B-A) stood at 21.6 ×10⁻⁶ cm/s. Moreover, the “MDCK ER” value in the series “MDCK permeability” (efflux ratio (ER)) turned out to be 1.15. In addition, in series [4], the “PPB (M) % U” value is 0.81%. The “PPB (H) % U” value in [5] was 0.41%. Moreover, at MRGPRX2 (10 μM (MRGPRX2) vs 28 nM (MRGPRX4)), the “MRGPRX2 IC50 relative to potency in MRGPRX4 assay” value turned out to be 357 times.
On to `O=c1[nH]c(-c2cccc([C@@H]3Cc4cc(Cl)c(F)cc4O3)c2)no1` (single isomer, unassigned), for which the IC50 at MRGPRX4 (setting [6]) was less than 100 nM.
As for `O=c1[nH]c(-c2cccc([C@H]3Cc4cc(C(F)(F)F)ccc4O3)c2)no1` (single isomer, unassigned), at MRGPRX4 (setting [6]), the IC50 is more than 3000 nM.
For the compound `O=c1[nH]c(-c2cccc([C@H]3Cc4cc(C(F)(F)F)ccc4O3)c2F)no1` (single isomer, unassigned), on MRGPRX4 (setting [6]), the IC50 lay within 1000 to 3000 nM.
As to `O=c1[nH]c(-c2cccc([C@H]3Cc4cc(Cl)c(F)cc4O3)c2)no1` (single isomer, unassigned), the IC50 on MRGPRX4 (setting [6]) is 1000 to 3000 nM.
Take `O=c1[nH]c(-c2cccc([C@H]3Cc4cc(Cl)c(F)cc4O3)c2F)no1` (single isomer, unassigned): at MRGPRX4 (setting [6]), the IC50 is more than 3000 nM.
The same measure, in the same setting: the figure for `Oc1c(-c2nnn[nH]2)cccc1[C@@H]1Cc2cc(C(F)(F)F)ccc2O1` (single isomer, unassigned) is more than 3000 nM; for `Oc1c(-c2nnn[nH]2)cccc1[C@H]1Cc2cc(C(F)(F)F)ccc2O1` (single isomer, unassigned) it is 500 to 1000 nM; for “(S)-1-methyl-5-(3-(5-(trifluoromethyl)-2,3-dihydrobenzofuran-2-yl) phenyl)-1H-1,2,3-triazole” it is more than 3000 nM.
Consider “m-(5-chloro-2,3-dihydro-1-benzofuran-2-yl) benzoic acid”, for which the IC50 on MRGPRX4 (setting [6]) lay in the range of 1000 to 3000 nM.

(Values after patent US20260382582A1, “G-PROTEIN COUPLED RECEPTOR ANTAGONIST” (published 2026).)
